Assay results as given in ChEMBL document CHEMBL4304814, “Fluorinated Analogues of the Histone Deacetylase Inhibitor Vorinostat (Zolinza): Validation of a Chiral Hybrid Bioisostere, BITE” (ACS Med Chem Lett, 2019).

Chains of the proteins cited; added tags and fusions are not shown.
UniProt Q13547, whole entry: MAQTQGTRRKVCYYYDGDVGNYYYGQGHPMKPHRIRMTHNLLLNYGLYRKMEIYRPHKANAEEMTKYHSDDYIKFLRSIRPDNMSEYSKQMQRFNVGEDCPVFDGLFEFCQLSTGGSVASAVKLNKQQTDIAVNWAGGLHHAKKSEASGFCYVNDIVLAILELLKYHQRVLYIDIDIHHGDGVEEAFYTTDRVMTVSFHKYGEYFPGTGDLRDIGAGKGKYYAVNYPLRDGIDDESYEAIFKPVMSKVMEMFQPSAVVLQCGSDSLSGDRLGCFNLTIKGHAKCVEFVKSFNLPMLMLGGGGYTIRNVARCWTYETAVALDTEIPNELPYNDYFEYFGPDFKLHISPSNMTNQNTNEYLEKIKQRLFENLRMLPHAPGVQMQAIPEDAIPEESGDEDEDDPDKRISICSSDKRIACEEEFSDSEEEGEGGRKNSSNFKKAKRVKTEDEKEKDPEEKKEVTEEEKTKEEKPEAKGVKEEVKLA

Molecular target: Histone deacetylase 1 (Homo sapiens) (UniProt Q13547)
Conditions: Sf9, 1 uM

## CCCCCCCCCCOC(=O)Cc1ccc(NC(=O)CCCCCCC(=O)NO)cc1
  inhibition: < 100%

## CCCCCCCCCCCOC(=O)Cc1ccc(NC(=O)CCCCCCC(=O)NO)cc1
  inhibition: < 100%
